Our source for the inhibition values is ChEMBL document CHEMBL3627608, “Crystal structures of human RIP2 kinase catalytic domain complexed with ATP-competitive inhibitors: Foundations for understanding inhibitor selectivity” (Bioorg Med Chem, 2015).

The subject of the assay is Fibroblast growth factor receptor. The experiment in a line: Inhibition of FGFR (unknown origin) at 10 uM after 120 mins P33 radiolabeled kinase activity assay. The settings on record: Homo sapiens.

With `COCCNC(=O)c1ccc2c(c1)nc(-c1cnc(-c3ccc(Cl)cc3)[nH]1)n2CCOC`, the inhibition was -8.06%.
